According to patent publication US20110319384A1, “Pharmaceutical Compositions” (priority 2005, published 2011):

System: patients suffering from psychotic depression
[1] = all 24 patients between 5 and 7 at start

mean weight gain (in vivo): < 1 kg
Structure (SMILES): OCCOCCN1CCN(C2=Nc3ccccc3Sc3ccccc32)CC1 [quetiapine, 11-[4-[2-(2-hydroxyethoxy)ethyl]-1-piperazinyl]-dibenzo[b,f][1,4]thiazepine]
mean BPRS score at Week 6 (add-on to citalopram): about 31
mean BPRS score at baseline (add-on to citalopram): about 59
mean HAM-D21 score after 6 weeks (add-on to citalopram): about 10
mean HAM-D21 score at baseline (add-on to citalopram): about 31
mean decrease in BPRS score from baseline to Week 6 (add-on to citalopram): about 28
mean decrease from baseline in HAM-D21 scores (after 6 weeks, quetiapine 50-750 mg/day add-on to citalopram 20-60 mg/day): about 21
patients rated CGI severity 5 at study end [1]: 4 patients
patients rated CGI severity 6 at study end [1]: 1 patient
number of mild AEs (in vivo): Twenty-five
number of moderate AEs (in vivo): 9 AEs
patients who experienced at least 1 AE (in vivo): 12 patients
serious adverse events (SAEs) (in vivo): no serious adverse events
abnormal initial values for serum prolactin, EPS, or UKU side effects (most values): normalized by the end of the study
